1 compound from ChEMBL document CHEMBL6071206, “Development of BODIPY FL SNS 032 as a Versatile Probe for Constitutive Androstane Receptor and Multiple Kinases” (ACS Med Chem Lett, 2024) can be followed below.

Protein sequences, listed by entry. Tags and fused reporters are not part of them.
UniProt P50750, whole entry: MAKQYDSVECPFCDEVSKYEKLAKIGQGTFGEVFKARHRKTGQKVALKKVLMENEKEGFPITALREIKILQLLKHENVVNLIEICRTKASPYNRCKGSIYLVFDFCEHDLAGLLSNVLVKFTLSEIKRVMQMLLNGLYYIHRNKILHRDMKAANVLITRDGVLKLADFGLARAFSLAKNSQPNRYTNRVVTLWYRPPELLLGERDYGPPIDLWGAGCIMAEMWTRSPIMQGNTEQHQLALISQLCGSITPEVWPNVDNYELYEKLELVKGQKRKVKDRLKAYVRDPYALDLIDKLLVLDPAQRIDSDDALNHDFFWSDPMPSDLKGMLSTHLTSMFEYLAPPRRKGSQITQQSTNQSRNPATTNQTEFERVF

For the experiment, the target named is CDK9/cyclin T1 (Homo sapiens, UniProt P50750). The experiment in a line: Inhibition of His-tagged human CDK9/CycT1 incubated for 90 mins by TR-FRET assay. The format is protein-complex assay. (TR-FRET usually uses a lanthanide donor and a delayed reading to cut background.)

Take `Cn1cc(C2=C(c3cn(CCCSC(=N)N)c4ccccc34)C(=O)NC2=O)c2ccccc21` [BISINDOLYLMALEIMIDE IX]: the 50% inhibitory concentration (IC50) (commonly the concentration at which inhibition is half-maximal) worked out at 1 nM.
